CycPeptMPDB entries from one study

Source: CycPeptMPDB (Li et al. 2023), which took these values from Kelly et al. 2021, doi:10.1021/jacs.0c06115.

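Lipid, pH, incubation time, direction and concentration are not recorded in the data file. The list need not hold all peptides of the study. Entries at the database's floor value (log10 P of -10) are not listed.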

PAMPA measures passive passage through an artificial lipid membrane.
Permeability is in 10^-6 cm/s, converted from the database's log10 values; higher is more permeable.

| PAMPA (10^-6 cm/s) | structure (SMILES) |
|---|---|
| 0.046 | CC(=O)N1CCC[C@@H]1C(=O)N(C)[C@H](CC(C)C)C(=O)N[C@@H]1C(=O)N(C)[C@H](CC(C)C)C(=O)N[C@H](CC(C)C)C(=O)N[C@H](CC(C)C)C(=O)N[C@H](C)C(=O)N[C@H](CC(C)C)C(=O)N2CCC[C@@H]2C(=O)O[C@@H]1C |
| 0.17 | CC(=O)N1CCC[C@H]1C(=O)N(C)[C@@H](CC(C)C)C(=O)N[C@@H]1C(=O)N[C@@H](CC(C)C)C(=O)N[C@@H](CC(C)C)C(=O)N(C)[C@@H](CC(C)C)C(=O)N(C)[C@@H](C)C(=O)N[C@H](CC(C)C)C(=O)N2CCC[C@@H]2C(=O)O[C@@H]1C |
| 1.2 | CC(=O)N1CCC[C@@H]1C(=O)N(C)[C@@H](CC(C)C)C(=O)N[C@@H]1C(=O)N[C@@H](CC(C)C)C(=O)N[C@@H](CC(C)C)C(=O)N[C@@H](CC(C)C)C(=O)N(C)[C@@H](C)C(=O)N[C@H](CC(C)C)C(=O)N2CCC[C@@H]2C(=O)O[C@@H]1C |
| 4.8 | CC(=O)N1CCC[C@H]1C(=O)N[C@@H]1C(=O)N[C@H](CC(C)C)C(=O)N(C)[C@@H](CC(C)C)C(=O)N[C@@H](CC(C)C)C(=O)N(C)[C@@H](CC(C)C)C(=O)N(C)[C@@H](C)C(=O)N[C@@H](CC(C)C)C(=O)N2CCC[C@@H]2C(=O)O[C@@H]1C |
| 4.8 | CC(=O)N1CCC[C@H]1C(=O)N(C)[C@H](CC(C)C)C(=O)N[C@@H]1C(=O)N(C)[C@@H](CC(C)C)C(=O)N[C@@H](CC(C)C)C(=O)N(C)[C@H](CC(C)C)C(=O)N[C@@H](C)C(=O)N[C@@H](CC(C)C)C(=O)N2CCC[C@H]2C(=O)O[C@@H]1C |
| 3.2 | CC(=O)N1CCC[C@H]1C(=O)N(C)[C@H](CC(C)C)C(=O)N[C@@H]1C(=O)N(C)[C@H](CC(C)C)C(=O)N(C)[C@H](CC(C)C)C(=O)N[C@H](CC(C)C)C(=O)N(C)[C@@H](C)C(=O)N[C@H](CC(C)C)C(=O)N2CCC[C@@H]2C(=O)O[C@@H]1C |
| 2.3 | CC(=O)N1CCC[C@@H]1C(=O)N(C)[C@H](CC(C)C)C(=O)N[C@@H]1C(=O)N[C@H](CC(C)C)C(=O)N(C)[C@H](CC(C)C)C(=O)N(C)[C@@H](CC(C)C)C(=O)N(C)[C@@H](C)C(=O)N[C@@H](CC(C)C)C(=O)N2CCC[C@@H]2C(=O)O[C@@H]1C |
| 4.9 | CC(=O)N1CCC[C@@H]1C(=O)N(C)[C@@H](CC(C)C)C(=O)N[C@@H]1C(=O)N[C@H](CC(C)C)C(=O)N[C@@H](CC(C)C)C(=O)N(C)[C@H](CC(C)C)C(=O)N[C@H](C)C(=O)N[C@@H](CC(C)C)C(=O)N2CCC[C@@H]2C(=O)O[C@@H]1C |
| 3.5 | CC(=O)N1CCC[C@H]1C(=O)N(C)[C@@H](CC(C)C)C(=O)N[C@@H]1C(=O)N[C@H](CC(C)C)C(=O)N(C)[C@H](CC(C)C)C(=O)N(C)[C@H](CC(C)C)C(=O)N[C@@H](C)C(=O)N[C@H](CC(C)C)C(=O)N2CCC[C@H]2C(=O)O[C@@H]1C |
| 9.5 | CC(=O)N[C@@H]1C(=O)N2CCC[C@H]2C(=O)N(C)[C@H](CC(C)C)C(=O)N(C)[C@H](CC(C)C)C(=O)N[C@@H](CC(C)C)C(=O)N(C)[C@@H](CC(C)C)C(=O)N[C@@H](C)C(=O)N[C@@H](CC(C)C)C(=O)N2CCC[C@@H]2C(=O)O[C@@H]1C |
| 0.055 | CC(=O)N1CCC[C@@H]1C(=O)N(C)[C@H](CC(C)C)C(=O)N[C@@H]1C(=O)N[C@@H](CC(C)C)C(=O)N[C@H](CC(C)C)C(=O)N[C@H](CC(C)C)C(=O)N[C@H](C)C(=O)N[C@H](CC(C)C)C(=O)N2CCC[C@H]2C(=O)O[C@@H]1C |
| 1.1 | CC(=O)N1CCC[C@H]1C(=O)N[C@@H]1C(=O)N[C@H](CC(C)C)C(=O)N[C@H](CC(C)C)C(=O)N[C@H](CC(C)C)C(=O)N[C@@H](CC(C)C)C(=O)N(C)[C@@H](C)C(=O)N[C@@H](CC(C)C)C(=O)N2CCC[C@@H]2C(=O)O[C@@H]1C |
| 1.3 | CC(=O)N1CCC[C@H]1C(=O)N(C)[C@H](CC(C)C)C(=O)N[C@@H]1C(=O)N[C@H](CC(C)C)C(=O)N(C)[C@H](CC(C)C)C(=O)N[C@@H](CC(C)C)C(=O)N[C@@H](C)C(=O)N[C@H](CC(C)C)C(=O)N2CCC[C@H]2C(=O)O[C@@H]1C |
| 3.2 | CC(=O)N1CCC[C@H]1C(=O)N(C)[C@@H](CC(C)C)C(=O)N[C@@H]1C(=O)N[C@@H](CC(C)C)C(=O)N(C)[C@@H](CC(C)C)C(=O)N[C@@H](CC(C)C)C(=O)N(C)[C@H](C)C(=O)N[C@H](CC(C)C)C(=O)N2CCC[C@@H]2C(=O)O[C@@H]1C |
| 7.1 | CC(=O)N1CCC[C@H]1C(=O)N(C)[C@H](CC(C)C)C(=O)N[C@@H]1C(=O)N(C)[C@@H](CC(C)C)C(=O)N(C)[C@H](CC(C)C)C(=O)N(C)[C@@H](CC(C)C)C(=O)N(C)[C@H](C)C(=O)N[C@H](CC(C)C)C(=O)N2CCC[C@@H]2C(=O)O[C@@H]1C |
| 1.5 | CC(=O)N1CCC[C@@H]1C(=O)N(C)[C@@H](CC(C)C)C(=O)N[C@@H]1C(=O)N(C)[C@@H](CC(C)C)C(=O)N(C)[C@H](CC(C)C)C(=O)N[C@H](CC(C)C)C(=O)N(C)[C@@H](C)C(=O)N[C@@H](CC(C)C)C(=O)N2CCC[C@H]2C(=O)O[C@@H]1C |
| 9.8 | CC(=O)N1CCC[C@H]1C(=O)N(C)[C@@H](CC(C)C)C(=O)N[C@@H]1C(=O)N(C)[C@H](CC(C)C)C(=O)N(C)[C@H](CC(C)C)C(=O)N[C@H](CC(C)C)C(=O)N(C)[C@@H](C)C(=O)N[C@H](CC(C)C)C(=O)N2CCC[C@H]2C(=O)O[C@@H]1C |
| 0.72 | CC(=O)N1CCC[C@H]1C(=O)N(C)[C@@H](CC(C)C)C(=O)N[C@@H]1C(=O)N(C)[C@@H](CC(C)C)C(=O)N[C@H](CC(C)C)C(=O)N[C@H](CC(C)C)C(=O)N(C)[C@H](C)C(=O)N[C@H](CC(C)C)C(=O)N2CCC[C@H]2C(=O)O[C@@H]1C |
| 0.19 | CC(=O)N1CCC[C@H]1C(=O)N(C)[C@H](CC(C)C)C(=O)N[C@@H]1C(=O)N(C)[C@@H](CC(C)C)C(=O)N[C@@H](CC(C)C)C(=O)N[C@@H](CC(C)C)C(=O)N[C@@H](C)C(=O)N[C@H](CC(C)C)C(=O)N2CCC[C@H]2C(=O)O[C@@H]1C |